Where “and” joins values, the source holds several entries; their conditions need not be identical. Identical values can stand only once. The list shows a part of the results, in another mix than the full data. Records with an inconclusive call do not appear. Calls of active or inactive are those of the source. Unless noted, calls follow the shape of the dose curve; as a rule, active = well fitted curve in the direction sought with a large enough effect; inconclusive = small, poorly fitted or top-dose-only effect, or another doubt; inactive = no such curve, though single readings can be large; an effect the other way counts as inactive or inconclusive.
Experiments:
[1] = Validation of Assay for Modulators of Lamin A Splicing (AID 1459; active = well fitted curve in the direction sought with a large enough effect in the signal ratio; the % refers to the signal ratio;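 also: cells exposed to compound for two days before reading; 0% is about no effect; ratio rise marks activators and ratio drop marks inhibitors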); conditions: Lamin A splicing dual RFP/GFP fluorescence reporter; at 9.22 µM (top of the series)
In short: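 Splicing correction read as GFP (500-530 nm) over DsRed2 (575-640 nm) object intensity after 48 h compound exposure of reporter HeLa S3 clones (600 cells/well, 2% FBS medium); ancitabine and cycloheximide titrations, 0.5% DMSO as vehicle.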

Amino acid sequences for entries named in this document (tags omitted). A change or cut given only in a name is not applied to a line headed by its entry.
UniProt P27695, whole entry, looked up: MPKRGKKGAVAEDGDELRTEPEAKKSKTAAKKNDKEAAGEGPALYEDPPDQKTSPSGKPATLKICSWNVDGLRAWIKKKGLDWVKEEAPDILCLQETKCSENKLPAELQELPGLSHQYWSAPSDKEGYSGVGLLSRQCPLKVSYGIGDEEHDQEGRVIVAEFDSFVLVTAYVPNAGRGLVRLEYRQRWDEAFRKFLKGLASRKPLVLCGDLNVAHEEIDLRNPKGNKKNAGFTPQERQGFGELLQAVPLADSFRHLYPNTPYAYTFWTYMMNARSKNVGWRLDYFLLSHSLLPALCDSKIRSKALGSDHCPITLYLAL
UniProt P02791: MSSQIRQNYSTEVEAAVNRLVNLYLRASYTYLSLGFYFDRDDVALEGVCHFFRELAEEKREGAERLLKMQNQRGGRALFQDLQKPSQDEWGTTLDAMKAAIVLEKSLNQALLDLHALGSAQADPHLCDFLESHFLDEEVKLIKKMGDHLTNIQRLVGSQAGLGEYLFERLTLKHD
UniProt P46063: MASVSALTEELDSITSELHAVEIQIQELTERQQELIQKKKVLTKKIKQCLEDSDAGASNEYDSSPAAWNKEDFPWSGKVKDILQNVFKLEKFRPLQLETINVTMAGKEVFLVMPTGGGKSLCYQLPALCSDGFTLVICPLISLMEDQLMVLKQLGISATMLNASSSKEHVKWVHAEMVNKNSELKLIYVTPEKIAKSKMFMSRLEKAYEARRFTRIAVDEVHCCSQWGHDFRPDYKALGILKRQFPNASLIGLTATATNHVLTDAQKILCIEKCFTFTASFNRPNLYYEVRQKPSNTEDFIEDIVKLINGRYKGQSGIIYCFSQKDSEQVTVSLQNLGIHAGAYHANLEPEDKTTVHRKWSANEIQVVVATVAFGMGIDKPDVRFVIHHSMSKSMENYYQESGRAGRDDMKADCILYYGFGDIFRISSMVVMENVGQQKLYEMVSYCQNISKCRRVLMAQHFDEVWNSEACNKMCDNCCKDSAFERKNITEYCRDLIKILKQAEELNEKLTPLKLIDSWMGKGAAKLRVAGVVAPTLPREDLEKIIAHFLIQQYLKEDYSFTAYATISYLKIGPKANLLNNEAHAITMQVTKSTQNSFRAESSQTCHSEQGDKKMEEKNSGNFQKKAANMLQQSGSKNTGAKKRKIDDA
UniProt P54132: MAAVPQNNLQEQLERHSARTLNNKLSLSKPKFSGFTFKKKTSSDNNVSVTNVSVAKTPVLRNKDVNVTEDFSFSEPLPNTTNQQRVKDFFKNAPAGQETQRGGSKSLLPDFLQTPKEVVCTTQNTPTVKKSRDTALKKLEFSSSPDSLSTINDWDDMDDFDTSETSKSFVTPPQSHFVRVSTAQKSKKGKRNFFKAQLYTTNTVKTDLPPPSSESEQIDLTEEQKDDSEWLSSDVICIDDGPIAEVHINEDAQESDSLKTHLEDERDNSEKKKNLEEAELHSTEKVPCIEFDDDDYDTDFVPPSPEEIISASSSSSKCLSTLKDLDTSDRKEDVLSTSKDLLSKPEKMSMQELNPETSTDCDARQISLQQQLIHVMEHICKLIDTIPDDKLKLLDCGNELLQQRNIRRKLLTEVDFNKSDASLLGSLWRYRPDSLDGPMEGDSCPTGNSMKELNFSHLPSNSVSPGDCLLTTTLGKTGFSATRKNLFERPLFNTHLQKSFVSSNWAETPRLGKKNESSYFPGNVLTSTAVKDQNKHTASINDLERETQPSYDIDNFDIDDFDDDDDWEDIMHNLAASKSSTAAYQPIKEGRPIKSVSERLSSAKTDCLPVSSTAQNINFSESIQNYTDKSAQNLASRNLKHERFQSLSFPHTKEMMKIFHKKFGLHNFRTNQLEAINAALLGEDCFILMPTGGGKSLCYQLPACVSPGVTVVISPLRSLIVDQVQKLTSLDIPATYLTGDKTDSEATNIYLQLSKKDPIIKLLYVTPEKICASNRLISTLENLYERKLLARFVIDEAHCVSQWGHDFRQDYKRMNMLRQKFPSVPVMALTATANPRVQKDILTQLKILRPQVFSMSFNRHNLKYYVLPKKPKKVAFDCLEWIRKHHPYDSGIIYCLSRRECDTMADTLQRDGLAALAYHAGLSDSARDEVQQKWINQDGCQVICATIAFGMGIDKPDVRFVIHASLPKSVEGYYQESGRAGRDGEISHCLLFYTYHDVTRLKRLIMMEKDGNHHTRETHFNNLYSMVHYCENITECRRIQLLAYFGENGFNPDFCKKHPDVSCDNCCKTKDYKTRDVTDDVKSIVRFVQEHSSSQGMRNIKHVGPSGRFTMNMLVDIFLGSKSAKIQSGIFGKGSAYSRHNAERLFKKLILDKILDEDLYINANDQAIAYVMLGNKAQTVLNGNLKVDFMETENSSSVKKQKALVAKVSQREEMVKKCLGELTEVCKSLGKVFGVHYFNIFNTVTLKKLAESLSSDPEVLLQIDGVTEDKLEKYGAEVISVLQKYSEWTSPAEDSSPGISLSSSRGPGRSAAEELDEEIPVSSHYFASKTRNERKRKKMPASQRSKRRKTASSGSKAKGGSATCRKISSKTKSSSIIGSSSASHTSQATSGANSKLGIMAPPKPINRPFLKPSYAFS
UniProt O75604: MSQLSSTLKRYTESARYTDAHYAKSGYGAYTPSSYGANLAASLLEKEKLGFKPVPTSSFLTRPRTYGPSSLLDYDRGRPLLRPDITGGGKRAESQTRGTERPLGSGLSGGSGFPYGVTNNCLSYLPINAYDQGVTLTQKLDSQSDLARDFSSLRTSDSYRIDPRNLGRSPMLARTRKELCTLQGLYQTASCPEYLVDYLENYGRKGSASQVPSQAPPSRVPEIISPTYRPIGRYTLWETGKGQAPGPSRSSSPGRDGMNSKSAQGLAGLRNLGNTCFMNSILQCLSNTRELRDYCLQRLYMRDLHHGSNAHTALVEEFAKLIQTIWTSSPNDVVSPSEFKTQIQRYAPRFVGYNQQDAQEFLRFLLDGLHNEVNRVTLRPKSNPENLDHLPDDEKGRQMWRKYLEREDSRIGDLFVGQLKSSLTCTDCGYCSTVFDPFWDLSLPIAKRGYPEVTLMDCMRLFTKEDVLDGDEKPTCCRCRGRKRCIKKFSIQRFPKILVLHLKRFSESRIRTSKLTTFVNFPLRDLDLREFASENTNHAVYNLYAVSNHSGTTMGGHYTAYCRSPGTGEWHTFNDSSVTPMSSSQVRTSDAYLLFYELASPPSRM
UniProt O89049, whole entry, looked up: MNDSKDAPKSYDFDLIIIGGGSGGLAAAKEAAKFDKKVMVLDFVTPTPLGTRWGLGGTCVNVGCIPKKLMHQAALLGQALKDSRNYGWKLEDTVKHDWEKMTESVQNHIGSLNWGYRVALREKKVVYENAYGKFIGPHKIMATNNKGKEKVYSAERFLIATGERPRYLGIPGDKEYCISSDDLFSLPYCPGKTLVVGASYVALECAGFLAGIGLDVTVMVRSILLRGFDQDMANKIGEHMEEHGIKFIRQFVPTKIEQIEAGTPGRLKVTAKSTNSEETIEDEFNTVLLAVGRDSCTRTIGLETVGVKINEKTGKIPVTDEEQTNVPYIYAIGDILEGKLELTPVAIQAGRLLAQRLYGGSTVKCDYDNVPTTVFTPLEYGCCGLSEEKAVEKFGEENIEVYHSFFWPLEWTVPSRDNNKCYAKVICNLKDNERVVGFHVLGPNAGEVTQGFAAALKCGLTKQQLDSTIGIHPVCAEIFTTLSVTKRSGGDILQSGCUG

[2] = target: DNA repair nuclease/redox regulator APEX1 (Homo sapiens) (UniProt P27695); experiment: qHTS Validation Assay for Inhibitors of the Human Apurinic/apyrimidinic Endonuclease 1 (APE1) (AID 1705;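 also: TAMRA fluorescence gain over two minutes as APE1 cuts a quenched THF abasic duplex; % is scaled to controls: 0 for no effect and ±100 for the full control effect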); conditions: purified APE1 endonuclease activity, fluorescence, titration; at 57.1 µM (top of the series)
In short: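 Activity read as rising fluorescence (598 nm emission, 525 nm excitation) from incision of a TAMRA/BHQ-2 duplex carrying a THF abasic site (50 nM). Compound and enzyme sat 15 min at RT before substrate start; signal change between first and third 60-s reads.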

[3] = Counterscreen for APE1 Inhibitors: Fluorescent Dye Displacement Validation Assay (AID 1707); conditions: fluorescent dye displacement from DNA; at 57.1 µM (top of the series);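 also: plate controls were ThO with dsDNA and no compound for no effect and ThO without dsDNA for full effect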
In short: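 Loss of Thiazole Orange fluorescence marks promiscuous DNA binders. The dye (250 nM) is mixed with 50 nM abasic-site dsDNA in pH7.5 Tris buffer containing MgCl2, then compounds are added and emission is read once.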

[4] = target: Ferritin light chain (Equus caballus) (UniProt P02791); experiment: qHTS Validation Assay for Identification of Novel General Anesthetics (AID 2323); conditions: horse apoferritin, anesthetic-site fluorescent probe displacement; at 76.9 µM (top of the series); also: % is scaled to controls: 0 for no effect and ±100 for the full control effect
In short: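 Competitive displacement of the profluorescent anesthetic 1-AMA (50% saturated, PBS) from 10 uM apoferritin, 10 min, room temperature. Activity is normalized 380/535 nm fluorescence; concentration-response fitted with a four-parameter Hill equation.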

[5] = target: ATP-dependent DNA helicase Q1 (Homo sapiens) (UniProt P46063); experiment: qHTS Validation Assay for Inhibitors of RecQ-Like Dna Helicase 1 (RECQ1) (AID 2353); conditions: recombinant RECQ1 helicase DNA unwinding assay; at 25.6 µM (top of the series);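 also: plate controls were DMSO vehicle for no effect and enzyme-free control for full effect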
In short: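 RECQ1T1 50 nM; forked duplex (20 bp + 30-nt ss tails) 200 nM, ATP 2 mM final; pH 8.0, 2 mM MgCl2, 2.5 ug/ml poly(dI-dC); 15 min compound preincubation; discontinuous kinetic read over 2 h at RT.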

[6] = target: RecQ-like DNA helicase BLM (Homo sapiens) (UniProt P54132); experiment: qHTS Validation Assay for Inhibitors of Bloom's syndrome helicase (BLM) (AID 2364); conditions: BLM helicase DNA unwinding, fluorescence, in vitro; at 57.1 µM (top of the series);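 also: plate controls were DMSO vehicle for no effect and enzyme-free control for full effect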
[7] = Cytometric Cell-Based qHTS for Inhibitors of the mTORC1 Signaling Pathway in MEF (Tsc2-/-, p53-/-) Cells (AID 2660); conditions: mTORC1 pathway cytometry; at 38.3 µM (top of the series);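 also: Tsc2 and p53 null MEFs carrying empty vector with compound for 24 h; percent of cells above a phospho-rpS6 to PI ratio cutoff in each well; plate controls were DMSO for no effect and rapamycin for full effect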
In short: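 Percent of cells positive for normalized phospho-S6 staining is reported, with the cutoff set from rapamycin (7.5 nM) versus DMSO wells. Tsc2-/-, p53-/- MEFs received compound for 24 hrs.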

[8] = High Content Imaging Cell-Based qHTS for Inhibitors of the mTORC1 Signaling Pathway in MEF (Tsc2-/-, p53-/-) Cells (AID 2666); conditions: at 38.3 µM (top of the series);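 also: percent of cells scored positive for phospho-rpS6 Ser235/236 immunostaining by imaging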
In short: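 Tsc2-/-, p53-/- MEFs (empty-vector stable) grown in DMEM + 10% FBS were exposed to compounds for 24 hrs at 37 degree Celsius, fixed, and stained with Alexa-488 anti-phospho-rpS6 Ser235/236 plus Hoechst. Imaging gave the percentage of positive cells per well.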

[9] = High Content Imaging Cell-Based qHTS for Inhibitors of the mTORC1 Signaling Pathway in MEF Cells (AID 2667); conditions: at 38.3 µM (top of the series);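 also: Tsc2-/- p53-/- MEFs stably re-expressing wild-type Tsc2 exposed 24 h; plate controls were DMSO wells for no effect and rapamycin control wells for full effect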
In short: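 Tsc2-/-, p53-/- MEFs stably re-expressing WT Tsc2, grown in DMEM + 10% FBS, were treated with compounds for 24 hrs at 37 degree Celsius, fixed, and stained with Alexa-488 phospho-rpS6 Ser235/236 antibody plus Hoechst; results given as % positive cells.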

[10] = Cytometry Cell-Based qHTS for Inhibitors of the mTORC1 Signaling Pathway in MEF cells (AID 2668); conditions: mTORC1 pathway readout; at 38.3 µM (top of the series);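 also: Tsc2-/- p53-/- mouse embryonic fibroblasts stably re-expressing wild-type Tsc2; percent cells positive for phospho-rpS6 Ser235/236 relative to propidium iodide stain; plate controls were DMSO wells for no effect and 7.5 nM rapamycin control wells for full effect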
In short: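 Phospho-rpS6 (Ser235/236) immunofluorescence over PI signal, scored as % positive cells using thresholds from 7.5 nM rapamycin and DMSO wells, after 24 h compound exposure of WT-Tsc2-rescued Tsc2-/-, p53-/- MEFs. PI cell count recorded for viability.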

[11] = Validation screen for small molecules that induce DNA re-replication in MCF 10A normal breast cells (AID 463097); conditions: MCF 10A cells, DNA re-replication phenotype imaging; at 46.1 µM (top of the series); also: 0% is about no effect; nearly all actives have a fitted effect of over 60% in size
In short: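 Read-out is Hoechst total nuclear intensity by fluorescence scanning imager, flagging increased high-DNA-content nuclei. Compounds were incubated with MCF 10A cells for 48 hr (37 C, 5% CO2) before 40 min staining.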

[12] = target: Ubiquitin carboxyl-terminal hydrolase 2 (Homo sapiens) (UniProt O75604); experiment: qHTS Validation Assay for Inhibitors of Ubiquitin-specific Protease USP2a Using CHOP2 as the Reporter (AID 463106); conditions: USP2a cleavage of CHOP2 reporter, enzymatic; at 38.3 µM (top of the series);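 also: plate controls were DMSO for no effect and full inhibition by NEM for full effect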
In short: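 Readout was coupled fluorescence (Ex 485/Em 531 nm), read 60 min after adding 25 nM final Ub-CHOP2 and 25 nM reporter substrate. Beforehand, 10 nM final USP2 core had 30 min at RT with compound in pH 8.0 buffer. Curves were fitted after normalization to NEM and flagged for artifacts using time-zero reads.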

[13] = qHTS Validation Assay to Find Inhibitors of Chronic Active B-Cell Receptor Signaling (AID 485345; active = well fitted curve in the direction sought with a large enough effect in the main read-out, with a control signal flat, not every such curve was filed as active;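 also: 0% = untreated basal cells and 100% = 10 µM MG-132 proteasome inhibitor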); conditions: ABC-DLBCL cells, chronic BCR signaling reporter, CBG luciferase; at 46.1 µM (top of the series)
In short: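 Read-out: ratio of filter-corrected green (IkappaBalpha fusion) to red (native) luciferase signal in doxycycline-induced TMD8 cells after 4 h at 37C. Titration spanned 46 uM–3 nM; Data were normalised to basal cells and 10 uM MG-132 wells.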

[14] = target: Beta-2 adrenergic receptor (Homo sapiens) (UniProt P07550); experiment: qHTS validation assay of beta-arrestin-biased ligands of beta2-adrenergic receptor (AID 485366); conditions: cell-based beta-arrestin recruitment to ADRB2, qHTS; at 46.1 µM (top of the series); also: 0% is about no effect
In short: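 Screening used a titration range of up to 46 microM in a beta-arrestin recruitment Tango luciferase assay. Cells in 1% FBS medium were treated 18 hr at 37 degrees C, and luminescence was normalized to %Activity.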

[15] = target: Thioredoxin reductase 1, cytoplasmic (Rattus norvegicus) (UniProt O89049); experiment: qHTS Assay for Substrates of Mammalian Selenoprotein Thioredoxin Reductase 1 (TrxR1) (AID 488772); conditions: purified TrxR1, NADPH consumption substrate assay; at 57.1 µM (top of the series);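 also: 0% is about no effect; a drop in NADPH fluorescence below the no-compound background marks a TrxR1 substrate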
In short: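 In this dual-purpose format, potential substrates are identified from the first fluorescence read after selenite addition, not from the 8-minute delta. Rat enzyme is preincubated with NADPH and then with compound at ~22 deg C.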

CN(C(=O)Cc1ccc(Cl)c(Cl)c1)[C@H]1CCCC[C@@H]1N1CCCC1
inactive: ratio change, both ways [1] -9.73% and -4.51% | activity change, negative = inhibition [2] -5.66% and -2.53% | activity change, negative = inhibition [3] -1.57% and 1.88% | activity change, negative = inhibition [4] -16.9% | activity change, negative = inhibition [5] -3.94% and -5.37% | activity change, negative = inhibition [6] -8.8% and -5.86% | activity change, negative = inhibition [7] 9.52% and -0.794% | outcome [8] | activity change, negative = inhibition [9] -100% | activity change, negative = inhibition [10] -11.5% | re-replication induction [11] 1.08% and -2.19% | activity, negative = inhibition [12] 1.63% and 2.09% | activity change [13] -4.93% and -11.8% | activation [14] 0.981% and 0.0527% | activity change, negative = NADPH consumption [15] -2.21% and -2.95%
